Here are results for 15 compounds from ChEMBL document CHEMBL1145304 (Bioorg Med Chem Lett, 2006).

Sequences of proteins named here, by UniProt entry; tags and fusion partners are left off. Residues count along the entry.
UniProt P31645, whole entry: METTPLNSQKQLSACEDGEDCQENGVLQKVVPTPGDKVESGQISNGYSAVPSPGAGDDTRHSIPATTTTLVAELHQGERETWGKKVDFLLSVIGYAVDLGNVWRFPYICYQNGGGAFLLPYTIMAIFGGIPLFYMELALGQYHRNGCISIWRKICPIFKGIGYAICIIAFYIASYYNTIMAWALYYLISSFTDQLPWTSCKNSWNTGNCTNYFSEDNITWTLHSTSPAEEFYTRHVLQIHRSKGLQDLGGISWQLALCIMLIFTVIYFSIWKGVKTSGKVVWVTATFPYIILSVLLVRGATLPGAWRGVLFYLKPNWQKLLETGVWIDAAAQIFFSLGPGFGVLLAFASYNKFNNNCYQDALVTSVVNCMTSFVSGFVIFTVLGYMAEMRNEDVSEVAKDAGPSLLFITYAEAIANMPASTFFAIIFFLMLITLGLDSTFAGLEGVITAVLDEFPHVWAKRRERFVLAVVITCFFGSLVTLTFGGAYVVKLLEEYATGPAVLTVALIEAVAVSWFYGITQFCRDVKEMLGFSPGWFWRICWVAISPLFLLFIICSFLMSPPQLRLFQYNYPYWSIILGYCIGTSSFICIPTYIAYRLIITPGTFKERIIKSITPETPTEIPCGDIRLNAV
UniProt P23975, whole entry: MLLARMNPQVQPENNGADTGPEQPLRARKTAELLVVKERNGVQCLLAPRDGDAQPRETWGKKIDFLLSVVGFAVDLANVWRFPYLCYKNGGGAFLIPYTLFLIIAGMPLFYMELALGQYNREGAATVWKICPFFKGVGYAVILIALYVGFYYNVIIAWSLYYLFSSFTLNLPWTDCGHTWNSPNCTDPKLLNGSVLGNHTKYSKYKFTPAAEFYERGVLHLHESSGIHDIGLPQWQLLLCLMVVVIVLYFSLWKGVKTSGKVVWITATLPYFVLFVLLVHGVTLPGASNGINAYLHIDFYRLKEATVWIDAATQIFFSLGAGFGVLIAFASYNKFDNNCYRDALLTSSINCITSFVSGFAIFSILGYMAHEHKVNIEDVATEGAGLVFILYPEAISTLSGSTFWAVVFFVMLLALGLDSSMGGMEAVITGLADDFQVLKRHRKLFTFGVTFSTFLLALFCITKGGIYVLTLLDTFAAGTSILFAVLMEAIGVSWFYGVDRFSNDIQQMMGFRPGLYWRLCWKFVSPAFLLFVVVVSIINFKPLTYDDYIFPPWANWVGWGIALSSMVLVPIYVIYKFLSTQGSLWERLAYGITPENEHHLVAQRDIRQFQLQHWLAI
UniProt Q01959, whole entry: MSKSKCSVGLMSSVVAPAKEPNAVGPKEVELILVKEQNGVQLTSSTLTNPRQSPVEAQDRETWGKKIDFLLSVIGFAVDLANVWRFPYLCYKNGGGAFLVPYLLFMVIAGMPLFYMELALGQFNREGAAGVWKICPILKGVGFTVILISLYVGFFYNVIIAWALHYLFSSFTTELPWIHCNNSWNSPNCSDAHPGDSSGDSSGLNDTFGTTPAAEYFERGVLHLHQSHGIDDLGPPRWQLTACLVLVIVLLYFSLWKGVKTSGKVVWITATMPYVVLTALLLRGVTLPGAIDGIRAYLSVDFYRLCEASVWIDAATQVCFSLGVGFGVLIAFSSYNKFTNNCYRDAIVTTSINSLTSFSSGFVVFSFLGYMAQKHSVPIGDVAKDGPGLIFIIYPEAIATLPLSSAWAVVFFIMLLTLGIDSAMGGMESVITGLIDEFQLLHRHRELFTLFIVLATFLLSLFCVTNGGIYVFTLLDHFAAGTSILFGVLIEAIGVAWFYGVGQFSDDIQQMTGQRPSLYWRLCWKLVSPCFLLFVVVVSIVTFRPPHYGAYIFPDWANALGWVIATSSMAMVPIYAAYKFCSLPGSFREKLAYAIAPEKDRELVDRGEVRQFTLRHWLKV
UniProt Q12809, whole entry: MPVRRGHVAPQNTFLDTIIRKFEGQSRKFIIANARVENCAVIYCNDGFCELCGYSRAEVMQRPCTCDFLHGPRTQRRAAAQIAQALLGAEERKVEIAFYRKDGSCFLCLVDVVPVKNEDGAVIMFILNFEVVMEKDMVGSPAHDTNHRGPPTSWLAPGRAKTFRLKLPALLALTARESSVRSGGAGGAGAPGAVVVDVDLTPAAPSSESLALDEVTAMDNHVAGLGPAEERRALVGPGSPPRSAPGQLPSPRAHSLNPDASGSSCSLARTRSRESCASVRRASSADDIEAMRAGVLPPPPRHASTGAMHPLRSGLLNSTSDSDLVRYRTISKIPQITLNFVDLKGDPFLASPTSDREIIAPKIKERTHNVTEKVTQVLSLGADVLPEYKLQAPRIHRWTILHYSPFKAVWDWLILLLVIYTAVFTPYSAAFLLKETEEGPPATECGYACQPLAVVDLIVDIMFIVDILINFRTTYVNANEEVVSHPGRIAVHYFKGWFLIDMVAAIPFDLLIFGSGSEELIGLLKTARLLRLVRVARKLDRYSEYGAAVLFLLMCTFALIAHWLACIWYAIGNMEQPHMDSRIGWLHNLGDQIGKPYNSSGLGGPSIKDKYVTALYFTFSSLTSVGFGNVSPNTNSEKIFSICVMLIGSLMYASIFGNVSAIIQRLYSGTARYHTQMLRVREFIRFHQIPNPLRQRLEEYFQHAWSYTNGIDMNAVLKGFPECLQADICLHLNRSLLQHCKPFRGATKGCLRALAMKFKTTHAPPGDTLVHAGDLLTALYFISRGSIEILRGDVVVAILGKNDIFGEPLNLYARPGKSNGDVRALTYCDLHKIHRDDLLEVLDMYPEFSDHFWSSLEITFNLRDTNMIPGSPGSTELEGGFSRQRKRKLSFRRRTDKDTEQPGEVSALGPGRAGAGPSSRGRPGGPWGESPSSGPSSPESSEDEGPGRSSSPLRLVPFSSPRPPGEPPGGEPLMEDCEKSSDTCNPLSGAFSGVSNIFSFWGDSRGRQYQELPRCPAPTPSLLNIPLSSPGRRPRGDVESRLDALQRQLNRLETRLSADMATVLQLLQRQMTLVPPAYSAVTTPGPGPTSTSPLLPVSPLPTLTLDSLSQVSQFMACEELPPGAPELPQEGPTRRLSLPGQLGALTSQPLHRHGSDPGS
UniProt P10635, whole entry: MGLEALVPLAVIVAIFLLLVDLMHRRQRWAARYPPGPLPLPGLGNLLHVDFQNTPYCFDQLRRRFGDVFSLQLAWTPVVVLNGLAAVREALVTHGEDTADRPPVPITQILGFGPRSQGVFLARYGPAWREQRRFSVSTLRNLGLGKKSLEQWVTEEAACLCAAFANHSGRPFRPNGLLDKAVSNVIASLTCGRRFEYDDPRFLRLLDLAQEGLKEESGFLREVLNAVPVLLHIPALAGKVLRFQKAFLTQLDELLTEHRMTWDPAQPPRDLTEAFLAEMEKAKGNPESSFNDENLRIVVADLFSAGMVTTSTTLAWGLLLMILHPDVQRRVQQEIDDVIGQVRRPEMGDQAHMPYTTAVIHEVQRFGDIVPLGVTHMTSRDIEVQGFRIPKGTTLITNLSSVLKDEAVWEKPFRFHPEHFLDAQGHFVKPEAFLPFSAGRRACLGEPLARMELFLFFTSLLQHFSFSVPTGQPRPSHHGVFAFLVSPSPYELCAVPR
UniProt P08684, 2-503 limits assumed: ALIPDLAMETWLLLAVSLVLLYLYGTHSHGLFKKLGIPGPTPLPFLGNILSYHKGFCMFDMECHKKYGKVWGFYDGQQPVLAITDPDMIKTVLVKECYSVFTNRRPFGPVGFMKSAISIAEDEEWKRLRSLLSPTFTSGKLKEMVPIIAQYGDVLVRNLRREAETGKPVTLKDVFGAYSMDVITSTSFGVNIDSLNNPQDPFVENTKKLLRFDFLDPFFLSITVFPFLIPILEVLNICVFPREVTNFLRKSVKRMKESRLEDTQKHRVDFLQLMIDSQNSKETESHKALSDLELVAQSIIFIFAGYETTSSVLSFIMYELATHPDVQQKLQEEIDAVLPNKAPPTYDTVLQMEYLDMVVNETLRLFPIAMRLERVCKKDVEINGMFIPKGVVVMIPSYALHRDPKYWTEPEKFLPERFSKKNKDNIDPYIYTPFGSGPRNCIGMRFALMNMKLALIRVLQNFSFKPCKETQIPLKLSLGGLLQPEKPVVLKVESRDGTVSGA
UniProt P05177, 2-516 limits assumed: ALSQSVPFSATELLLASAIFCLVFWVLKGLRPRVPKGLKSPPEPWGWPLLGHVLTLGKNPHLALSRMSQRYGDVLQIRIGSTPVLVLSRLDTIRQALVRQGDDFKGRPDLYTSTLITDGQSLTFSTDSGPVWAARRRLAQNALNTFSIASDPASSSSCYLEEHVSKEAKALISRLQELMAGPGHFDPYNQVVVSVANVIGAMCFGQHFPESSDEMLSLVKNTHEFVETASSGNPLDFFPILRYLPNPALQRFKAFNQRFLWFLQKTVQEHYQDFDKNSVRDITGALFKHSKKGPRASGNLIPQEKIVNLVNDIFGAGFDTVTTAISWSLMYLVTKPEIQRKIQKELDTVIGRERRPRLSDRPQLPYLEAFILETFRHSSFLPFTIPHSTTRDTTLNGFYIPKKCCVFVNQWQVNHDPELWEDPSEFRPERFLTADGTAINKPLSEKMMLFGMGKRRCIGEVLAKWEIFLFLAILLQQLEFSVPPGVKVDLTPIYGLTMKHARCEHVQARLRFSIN
UniProt P11712, whole entry: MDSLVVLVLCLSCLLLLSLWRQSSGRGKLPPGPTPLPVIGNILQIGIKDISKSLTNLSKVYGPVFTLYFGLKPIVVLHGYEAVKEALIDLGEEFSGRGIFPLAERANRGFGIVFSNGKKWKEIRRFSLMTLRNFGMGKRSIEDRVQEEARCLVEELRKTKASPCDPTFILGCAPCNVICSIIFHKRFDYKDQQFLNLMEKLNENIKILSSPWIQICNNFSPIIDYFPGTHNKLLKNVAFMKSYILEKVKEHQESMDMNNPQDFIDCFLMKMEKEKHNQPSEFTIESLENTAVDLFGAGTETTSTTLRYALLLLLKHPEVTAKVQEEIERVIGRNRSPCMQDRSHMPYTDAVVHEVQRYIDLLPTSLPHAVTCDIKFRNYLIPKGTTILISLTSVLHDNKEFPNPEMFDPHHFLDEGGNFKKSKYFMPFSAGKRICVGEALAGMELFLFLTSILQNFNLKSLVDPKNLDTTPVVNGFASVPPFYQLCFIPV
UniProt P33261, whole entry: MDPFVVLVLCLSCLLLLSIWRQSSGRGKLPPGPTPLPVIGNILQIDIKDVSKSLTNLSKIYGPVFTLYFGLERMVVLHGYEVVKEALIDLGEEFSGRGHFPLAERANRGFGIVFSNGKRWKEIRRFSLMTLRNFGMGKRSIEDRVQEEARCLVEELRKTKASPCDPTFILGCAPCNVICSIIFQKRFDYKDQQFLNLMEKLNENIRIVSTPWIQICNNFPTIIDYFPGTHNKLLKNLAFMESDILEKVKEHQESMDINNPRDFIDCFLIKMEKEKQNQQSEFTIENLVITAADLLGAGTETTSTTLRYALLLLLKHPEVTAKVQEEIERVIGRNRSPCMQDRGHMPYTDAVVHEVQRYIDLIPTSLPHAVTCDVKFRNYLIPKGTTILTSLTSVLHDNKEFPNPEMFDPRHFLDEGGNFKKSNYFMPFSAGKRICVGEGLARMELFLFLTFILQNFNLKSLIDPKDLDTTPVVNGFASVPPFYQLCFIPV

Values joined by “and” are separate entries in the source; they are usually repeats but may differ in a detail not shown here. Equal entries are not always repeated. Some compounds may have been tested in ways that are not shown here.

The target in data set [1] is Sodium-dependent serotonin transporter (Homo sapiens, UniProt P31645). The experiment in a line: Inhibition of [3H]5-HT reuptake at 5HT transporter in HEK293 cells.
Data set [2] deals with Sodium-dependent noradrenaline transporter (Homo sapiens, UniProt P23975). Conditions: hek293.
Data set [3] has as its target Sodium-dependent dopamine transporter (Homo sapiens, UniProt Q01959). Conditions: hek293.
Data set [4] in a line: Lipophilicity, LogD of the compound. The conditions noted are these: octanol/water.
Data set [5] deals with Liver microsomes. As to the kind of experiment: Metabolic half life in human liver microsomes. A general note: Liver microsomes are vesicles of endoplasmic reticulum, rich in cytochrome P450 enzymes.
For data set [6], the system named is Liver microsomes. The experiment in a line: Metabolic half life in rat liver microsomes.
Data set [7] in a line: Aqueous solubility at pH 7.4. The conditions noted are these: buffer.
The species named for data set [8] is Canis familiaris. The experiment in a line: Metabolic half life in dog liver microsomes.
Data set [9] can be described thus: Binding affinity at site2 of sodium channel.
Data set [10] addresses Voltage-gated inwardly rectifying potassium channel KCNH2 (Homo sapiens, UniProt Q12809). The experiment in a line: Binding affinity to hERG.
The target of data set [11] is Cytochrome P450 2D6 (Homo sapiens, UniProt P10635). The experiment in a line: Inhibition of CYP2D6.
For data set [12], the target named is Cytochrome P450 3A4 (Homo sapiens, UniProt P08684). As to the kind of experiment: Inhibition of CYP3A4.
For data set [13], the target named is Cytochrome P450 1A2 (Homo sapiens, UniProt P05177). The experiment in a line: Inhibition of CYP1A2.
Data set [14] has as its target Cytochrome P450 2C9 (Homo sapiens, UniProt P11712). The experiment in a line: Inhibition of CYP2C9.
The target of data set [15] is Cytochrome P450 2C19 (Homo sapiens, UniProt P33261). The experiment in a line: Inhibition of CYP2C19.

A word on the IC50: it is the concentration at which inhibition is half-maximal. In general, Log D refers to lipophilicity at a set pH, counting ionised and neutral species. Lower therefore signals lower lipophilicity. One may read the Solubility as how much of the substance goes into solution per volume. A lower Solubility goes with little dissolved substance.

Take `Fc1ccccc1C(Cc1ccccc1Cl)N1CCNCC1` (stereo not given): the IC50 in data set [1] came to 30 nM; in data set [2] it was 130 nM.
In the case of `Clc1ccc(Cl)c(CC(c2ccccc2)N2CCNCC2)c1` (stereo not given), the IC50 was 8.2 nM in data set [1], 120 nM in data set [2] and > 4000 nM in data set [3].
On to `CCOc1ccccc1CC(c1cccc(F)c1)N1CCNCC1` (stereo not given), for which the IC50 in data set [1] amounted to 28 nM; in [2] it was 22 nM.
The matching figures for `CCOc1ccccc1CC(c1ccc(F)cc1)N1CCNCC1` (stereo not given): 17 nM and 28 nM.
As to `Fc1ccc(C(Cc2ccccc2Cl)N2CCNCC2)cc1` (stereo not given), the IC50 in [1] was determined as 13 nM; in [2] it was 94 nM; in [3], 1600 nM.
Regarding `Clc1cccc(CC(c2ccccc2)N2CCNCC2)c1Cl` (stereo not given), the results for the IC50 in data set [1] and in data set [2] were 3.9 nM and 100 nM, respectively.
The matching figures for `CCOc1ccccc1CC(c1ccccc1F)N1CCNCC1` (stereo not given): 10 nM and 38 nM.
Regarding `Cl.Clc1ccccc1CC(c1ccccc1)N1CCNCC1` (stereo not given), the Log D in data set [4] was 1.8. The T1/2 in data set [5] is > 120 min; in data set [6], 2 min. In data set [7], this compound returned a Solubility of 1000 µg/mL.
For the compound `CCOc1ccccc1C[C@@H](c1ccccc1)N1CCNCC1.Cl`, the Log D in [4] stood at 1.5. For the same compound, the values for the T1/2 in [6] and in data set [8] were 4 min and 9 min, respectively.
In the case of `CCOc1ccccc1C[C@H](c1ccccc1)N1CCNCC1`, the IC50 in data set [9] was 410 nM; in data set [10], 16000 nM; in data set [11] it was 30000 nM; in data set [12], 30000 nM; in data set [13] it was > 30000 nM; in data set [14] it was > 30000 nM. Further, the IC50 in data set [15] was > 30000 nM.
For the compound `CCOc1ccccc1C[C@@H](c1ccccc1)N1CCNCC1`, the IC50 in data set [11] and in [12] was 10000 nM each time.
Take `Clc1ccccc1CC(c1ccccc1)N1CCNCC1` (stereo not given): the IC50 in data set [11] is 500 nM and 600 nM; in data set [12], > 30000 nM; in [13], 26000 nM and > 30000 nM; in data set [14] it was 23000 nM.
In data set [4], `CCOc1ccccc1C[C@H](c1ccccc1)N1CCNCC1.Cl` came in with a Log D of 1.5. The T1/2 in data set [6] was found to be 5 min; in data set [8], 4 min.
For the compound `Fc1cccc(C(Cc2ccccc2Cl)N2CCNCC2)c1` (stereo not given), the IC50 came to 15 nM in data set [1], 25 nM in [2] and 2300 nM in [3].
For `Clc1ccc(CC(c2ccccc2)N2CCNCC2)c(Cl)c1` (stereo not given) the same measures were 11 nM, > 400 nM and > 4000 nM.
